Assay results reported in patent US8993586B2, “N1/N2-lactam acetyl-CoA carboxylase inhibitors” (Pfizer Inc., priority 2010, dated 2015).

Protein sequences, listed by entry. Tags and fused reporters are not part of them.
UniProt O00763, whole entry V2141I: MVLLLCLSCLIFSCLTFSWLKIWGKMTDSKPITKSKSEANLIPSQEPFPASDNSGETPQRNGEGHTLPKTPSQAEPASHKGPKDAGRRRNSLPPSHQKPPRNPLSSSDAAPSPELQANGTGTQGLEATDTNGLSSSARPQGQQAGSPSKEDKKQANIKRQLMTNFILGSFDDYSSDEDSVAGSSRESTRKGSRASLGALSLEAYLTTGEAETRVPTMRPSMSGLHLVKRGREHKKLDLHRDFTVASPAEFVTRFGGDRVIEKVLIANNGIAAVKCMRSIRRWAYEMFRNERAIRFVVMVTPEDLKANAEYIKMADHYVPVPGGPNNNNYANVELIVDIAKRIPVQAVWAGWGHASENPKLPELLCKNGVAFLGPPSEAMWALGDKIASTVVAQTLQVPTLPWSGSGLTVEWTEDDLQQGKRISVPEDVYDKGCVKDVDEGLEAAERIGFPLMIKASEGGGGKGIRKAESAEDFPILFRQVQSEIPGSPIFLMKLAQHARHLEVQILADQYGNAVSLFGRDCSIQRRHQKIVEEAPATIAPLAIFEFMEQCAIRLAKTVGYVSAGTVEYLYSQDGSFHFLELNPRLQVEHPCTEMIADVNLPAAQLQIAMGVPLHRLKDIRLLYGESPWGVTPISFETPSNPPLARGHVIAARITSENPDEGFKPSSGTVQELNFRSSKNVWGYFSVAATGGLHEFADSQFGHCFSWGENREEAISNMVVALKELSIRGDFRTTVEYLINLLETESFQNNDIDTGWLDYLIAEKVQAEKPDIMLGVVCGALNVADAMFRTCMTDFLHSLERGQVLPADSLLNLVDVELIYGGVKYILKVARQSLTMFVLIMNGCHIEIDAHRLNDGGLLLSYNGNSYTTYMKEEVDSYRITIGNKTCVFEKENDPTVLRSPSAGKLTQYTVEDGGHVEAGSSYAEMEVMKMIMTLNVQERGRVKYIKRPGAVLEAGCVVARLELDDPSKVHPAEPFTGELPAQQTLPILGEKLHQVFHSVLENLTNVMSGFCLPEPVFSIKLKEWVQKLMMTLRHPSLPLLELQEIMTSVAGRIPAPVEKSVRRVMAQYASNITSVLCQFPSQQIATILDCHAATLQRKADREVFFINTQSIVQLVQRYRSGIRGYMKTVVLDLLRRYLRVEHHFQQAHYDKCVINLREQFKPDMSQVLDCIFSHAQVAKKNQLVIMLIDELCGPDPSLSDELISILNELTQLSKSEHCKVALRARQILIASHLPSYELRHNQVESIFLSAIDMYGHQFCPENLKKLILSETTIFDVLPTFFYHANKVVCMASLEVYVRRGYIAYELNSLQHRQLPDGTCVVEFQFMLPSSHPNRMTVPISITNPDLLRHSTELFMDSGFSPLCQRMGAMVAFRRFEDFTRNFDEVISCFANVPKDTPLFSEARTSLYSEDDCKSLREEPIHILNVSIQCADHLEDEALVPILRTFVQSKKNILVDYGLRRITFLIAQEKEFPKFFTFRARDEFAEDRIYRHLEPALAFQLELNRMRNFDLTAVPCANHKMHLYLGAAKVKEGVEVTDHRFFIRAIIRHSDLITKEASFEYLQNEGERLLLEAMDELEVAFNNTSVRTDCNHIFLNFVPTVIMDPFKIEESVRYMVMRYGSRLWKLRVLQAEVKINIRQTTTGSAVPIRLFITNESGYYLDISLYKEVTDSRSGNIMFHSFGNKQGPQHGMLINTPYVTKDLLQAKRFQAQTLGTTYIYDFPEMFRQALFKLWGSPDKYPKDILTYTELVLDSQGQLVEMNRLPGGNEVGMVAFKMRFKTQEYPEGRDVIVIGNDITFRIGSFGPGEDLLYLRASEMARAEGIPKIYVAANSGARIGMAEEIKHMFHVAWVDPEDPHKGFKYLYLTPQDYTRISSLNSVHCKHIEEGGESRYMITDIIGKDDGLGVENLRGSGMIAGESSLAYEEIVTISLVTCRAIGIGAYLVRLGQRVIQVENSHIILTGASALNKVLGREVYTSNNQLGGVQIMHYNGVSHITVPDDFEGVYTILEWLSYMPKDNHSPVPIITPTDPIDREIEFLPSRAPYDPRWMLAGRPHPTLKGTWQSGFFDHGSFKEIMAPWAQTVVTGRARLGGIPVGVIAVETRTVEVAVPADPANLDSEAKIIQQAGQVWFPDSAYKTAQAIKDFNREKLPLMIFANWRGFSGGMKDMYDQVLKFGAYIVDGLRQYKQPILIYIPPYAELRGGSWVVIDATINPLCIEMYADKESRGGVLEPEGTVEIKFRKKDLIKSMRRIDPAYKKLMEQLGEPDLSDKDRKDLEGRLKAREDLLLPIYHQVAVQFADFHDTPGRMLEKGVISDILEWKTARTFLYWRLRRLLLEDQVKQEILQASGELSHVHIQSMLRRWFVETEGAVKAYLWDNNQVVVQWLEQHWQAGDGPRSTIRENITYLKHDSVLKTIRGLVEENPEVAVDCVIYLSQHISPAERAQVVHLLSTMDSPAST

Tests used:
[1] = target: recombinant human ACC1 (rhACC1) (Homo sapiens (Human), UniProt Q13085); experiment: recombinant hACC1 Transcreener ADP detection FP assay; format: biochemical; settings: read-out: hACC1 IC50, 50 μM ATP, 120 min at 25° C.
[2] = target: recombinant human ACC2 (rhACC2) (Homo sapiens (Human), UniProt O00763); experiment: recombinant hACC2 Transcreener ADP detection FP assay; format: biochemical; settings: read-out: hACC2 IC50, 50 uM ATP, 50 min at 25° C.

- IC50 [1]: 329 nM
- IC50 [2]: 97 nM
SMILES: CC(C)n1cc2c(n1)C(=O)NC1(CCN(C(=O)c3ccc4[nH]ncc4c3)CC1)C2
